Assay results taken from PubChem BioAssay AID696 (Sanford-Burnham Center for Chemical Genomics, 2007).
This is a selection; strong and weak results do not stand in their true shares. Activity calls are given as the source filed them. No stated cut-off is given here; in the data, active means activation fold above about 2; inactive means the rest.

Amino acid sequences for entries named in this document (tags omitted). A change or cut given only in a name is not applied to a line headed by its entry.
UniProt P05187: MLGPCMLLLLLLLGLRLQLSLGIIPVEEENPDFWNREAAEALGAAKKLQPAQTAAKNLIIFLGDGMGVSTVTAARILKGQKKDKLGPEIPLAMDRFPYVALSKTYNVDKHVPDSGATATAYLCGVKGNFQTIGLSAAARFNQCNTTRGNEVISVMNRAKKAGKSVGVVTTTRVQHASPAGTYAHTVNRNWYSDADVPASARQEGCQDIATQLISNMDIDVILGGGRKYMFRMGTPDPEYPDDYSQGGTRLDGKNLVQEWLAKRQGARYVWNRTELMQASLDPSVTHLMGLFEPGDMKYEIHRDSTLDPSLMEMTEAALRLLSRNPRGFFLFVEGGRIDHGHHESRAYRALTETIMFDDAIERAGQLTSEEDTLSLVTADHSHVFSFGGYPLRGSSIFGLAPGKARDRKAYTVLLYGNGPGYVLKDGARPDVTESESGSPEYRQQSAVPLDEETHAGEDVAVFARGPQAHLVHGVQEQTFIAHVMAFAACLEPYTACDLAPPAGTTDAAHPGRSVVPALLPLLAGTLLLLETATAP

These compounds were tested against Alkaline phosphatase, placental type (Homo sapiens) (UniProt P05187) (assay: PLAP enzyme activators, biochemical, luminescence, HTS (AID 696)). Details: purified PLAP enzyme, luminescent substrate read-out; at 20 µM; stronger effect = higher value.
`Cc1cccc(OCC(=O)OC2CN3CCC2CC3)c1` (centres undefined) was tested, and the activation fold was inactive: 0.9. `CCOP1(=S)c2c(C)nn(CCC#N)c2N=C(c2ccccc2F)N1C` (centres undefined) was tested, and the activation fold was inactive: 1.1. In the case of `O=P(Nc1nccs1)(c1ccccc1)c1nc2ccccc2s1` (centres undefined), the activation fold is reported as inactive: 1.4. `O=[N+]([O-])c1ccc2c(c1)nnn2O` was tested, and the activation fold was inactive: 0.9. In the case of `CCOP1(=S)c2c(C)nn(CCC#N)c2N=C(c2ccc(F)cc2)N1C` (centres undefined), the activation fold is reported as inactive: 1.3. In the case of `Cc1nn(-c2ccccc2)c2c1P(=O)(N1CCOCC1)N(C)C(c1ccccc1)=N2` (centres undefined), the activation fold is reported as inactive: 1.3. For `Cc1ccc(OCC(=O)OC2CN3CCC2CC3)cc1` (centres undefined), the activation fold was inactive: 1. In the case of `O=P1(Nc2ccc(Br)cn2)COc2ccccc2OC1`, the activation fold is reported as inactive: 1.1. In the case of `O=P1(Nc2ncccn2)COc2ccccc2OC1`, the activation fold is reported as inactive: 1.3. In the case of `Clc1n[nH]nc1-c1nn[nH][15n]1`, the activation fold is reported as inactive: 0.9. `O=P1(Nc2ccccn2)COc2ccccc2OC1` was tested, and the activation fold was inactive: 1.1. For `O=C(COc1ccccc1)OC1CN2CCC1CC2` (centres undefined), the activation fold was inactive: 1. With `COP1(=S)c2c(C)nn(CCC#N)c2N=C(c2ccc(F)cc2)N1C` (centres undefined) the activation fold was inactive: 1.4. For `CCN(CC)C(=S)SC(NC=O)C(Cl)(Cl)Cl` (centres undefined), the activation fold was inactive: 0.9. `O=C(OC1CN2CCC1CC2)C12CC3CC(CC(C3)C1)C2` (centres undefined) was tested, and the activation fold was inactive: 1.4. In the case of `CC(C)CC(=O)NC(Sc1ccc(Cl)cc1)C(Cl)(Cl)Cl` (centres undefined), the activation fold is reported as inactive: 0.7. For `Oc1ccccc1CNc1ccccn1`, the activation fold was inactive: 1. For `Cc1c2non([O-])c-2c(C)[n+](=O)[n+]1[O-]`, the activation fold was inactive: 0.9. In the case of `CCOP(=O)(Nc1ccccc1)OCC`, the activation fold is reported as inactive: 1.1. `O=[N+]([O-])c1cccc2n[nH]nc12` was tested, and the activation fold was inactive: 0.9. With `CCc1nc2c(n1)c1c(non1O)c1c2no[n+]1[O-]` the activation fold was inactive: 1. With `CC1CCN(C(=O)Oc2c(Cl)cc(Cl)c3cccnc23)CC1` the activation fold was inactive: 1.4. `c1nnnn1CCn1cnnn1` was tested, and the activation fold was inactive: 1. For `O=P(Nc1nccs1)(c1ccccc1)c1ccccc1`, the activation fold was inactive: 1.2. `O=C(OC1CN2CCC1CC2)c1cccc(Cl)c1` (centres undefined) was tested, and the activation fold was inactive: 1.1. In the case of `CCOC(=O)NC(Sc1ccccc1)C(Cl)(Cl)Cl` (centres undefined), the activation fold is reported as inactive: 1. `COC(=O)c1cc2c(s1)N=C(c1ccccc1)N(C)P2(=O)N1CCOCC1` (centres undefined) was tested, and the activation fold was inactive: 1.2. For `CCC(=O)N1C2C3N(C(=O)CC)C1C1N(C(=O)CC)C(C(N1C(=O)CC)N3C(=O)CC)N2C(=O)CC`, the activation fold was inactive: 0.7. `O=P1(Nc2nc3ccc(Cl)cc3s2)COc2ccccc2O1` (centres undefined) was tested, and the activation fold was inactive: 1.
